For two compounds, IC50 results are on record in patent publication US5721214A, “Inhibitors of factor Xa” (COR Therapeutics, Inc., priority 1995, dated 1998).

The target in the assay is T1, thrombin (Homo sapiens, UniProt P00734).
T1 construct: The formation of thrombin is the result of the proteolytic cleavage of its precursor prothrombin
The assay is described as follows: Thrombin amidolytic assay (Chromozym TH). In kind it is biochemical.

Read-outs that look alike come from different tables or passages of the source.

Turning to `N=C(N)NCCC[C@@H](C=O)NC(=O)CNC(=O)[C@@H](CCCNC(=N)N)NC(=O)C(=O)O` [HOOCCO--D--Arg--Gly--Arg--H, Oxaloyl-D-Arg-Gly-Arg-H], the IC50 (5 min preincubation, room temperature, pH 7.5, read-out: Inhibitory Activity (IC50) Thrombin) is 95 µM.

On to `CC(C)(C)OC(=O)N[C@H](CCCN=C(N)N)C(=O)NCC(=O)N[C@H](C=O)CCCN=C(N)N` [Boc--D--Arg--Gly--Arg--H, Boc-D-Arg-Gly-Arg-H], for which the IC50 was above 100 µM.
